Values of other authors in article PMC5249262.

Target: laminin-1 (Mus musculus) (UniProt P19137)

Kd: 2 nM
Substance: 67-kDa laminin receptor (from UniProt P14206)
